Values of other authors as cited in patent US5070074A, “Hypoglycemic and growth-promoting polypeptides isolated from bacitracin” (Protor Co., priority 1990, dated 1991).

Details: destruction by protease insulinase; cited from earlier work

In the case of insulin, the “t1/2 of destruction of insulin after injection” value is given as “approximately 40 minutes”.
